From paper PMC3030271 (ACS medicinal chemistry letters, 2010) come the findings set out here.

This assay addresses hA2AAR (Homo sapiens, UniProt P29274). Put plainly: Radioligand binding at hA2AAR. Particulars: binding affinity; HEK-293 cells expressing hA2AAR.

Structures are written as SMILES.

With `O[C@@H]1[C@H](O)CS[C@H]1n1cnc2c(NCc3cccc(Cl)c3)nc(Cl)nc21` [Compound 3], the “Ki at the hA2AAR” value is recorded as “only weakly bound”.
